Source: patent US20120189566A1, “EXTERNAL PREPARATION CONTAINING PANTETHINE PHOSPHATE ESTER” (DAIICHI FINE CHEMICAL CO., LTD., priority 2009, published 2012)
Like-named read-outs stand apart in the source and are kept apart here.

Settings: 0.1% (w/v) in 50 mM buffer, 40° C. for 6 months
[1] = pH 4 or lower, or pH 6.5 or higher

Substance | stability (content by HPLC before and after heating) (between pH 5 and 6) | stability (content by HPLC before and after heating) [1]
pantethine-4′,4″-di-α-glucoside | no difference in stability | stable
pantethine-4′-α-glucoside | no difference in stability | clearly degraded
